Assay results reported in article PMC11079024, “Identification of a family of species-selective complex I inhibitors as potential anthelmintics” (Nature Communications, 2024).
Like-named read-outs stand apart in the source and are kept apart here.

Amino acid sequences for entries named in this document (tags omitted). Residues count along the entry.
UniProt P03887, whole entry: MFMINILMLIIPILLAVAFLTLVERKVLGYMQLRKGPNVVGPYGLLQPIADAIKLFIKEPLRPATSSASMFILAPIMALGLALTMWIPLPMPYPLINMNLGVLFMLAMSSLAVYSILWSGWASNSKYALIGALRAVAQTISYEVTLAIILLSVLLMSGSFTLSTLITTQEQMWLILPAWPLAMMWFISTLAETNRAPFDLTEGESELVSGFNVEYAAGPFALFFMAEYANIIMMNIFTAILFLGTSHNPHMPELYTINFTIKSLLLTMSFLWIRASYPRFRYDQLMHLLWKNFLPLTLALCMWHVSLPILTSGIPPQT
UniProt P17694, 34-463: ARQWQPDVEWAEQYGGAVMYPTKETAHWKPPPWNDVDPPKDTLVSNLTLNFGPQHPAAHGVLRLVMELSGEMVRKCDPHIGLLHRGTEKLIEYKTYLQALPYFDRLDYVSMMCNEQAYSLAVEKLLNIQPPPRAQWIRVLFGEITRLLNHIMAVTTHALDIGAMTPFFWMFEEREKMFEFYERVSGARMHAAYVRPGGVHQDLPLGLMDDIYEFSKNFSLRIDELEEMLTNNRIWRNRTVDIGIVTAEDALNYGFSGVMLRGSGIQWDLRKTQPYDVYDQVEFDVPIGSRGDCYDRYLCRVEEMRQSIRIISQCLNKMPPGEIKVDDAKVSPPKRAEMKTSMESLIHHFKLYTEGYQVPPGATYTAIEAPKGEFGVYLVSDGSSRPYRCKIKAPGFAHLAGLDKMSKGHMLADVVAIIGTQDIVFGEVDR
UniProt P42026, 38-216: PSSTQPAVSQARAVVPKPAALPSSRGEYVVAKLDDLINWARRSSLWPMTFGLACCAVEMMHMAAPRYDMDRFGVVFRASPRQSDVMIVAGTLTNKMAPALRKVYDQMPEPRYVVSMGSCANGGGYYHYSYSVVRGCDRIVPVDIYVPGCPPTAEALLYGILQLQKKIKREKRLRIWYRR

Assays:
[1] = target: B. taurus (heart) complex I (Bos taurus, UniProt P03887+P17694+P42026); type: biochemical; details: heart mitochondria
L1 wild-type C. elegans = details: for Relative Motility: relative to DMSO controls, single biological replicate
[2] = 50 μM compound, worm motility 3 hours after removal of KCN
[3] = 50 μM, worm motility 3 hours after removal of KCN
[4] = 50 μM, worm motility 3 hours after the removal of KCN (endpoint)

SMILES | B. taurus: C. elegans IC50 Fold Change (Complex I IC50 ~Fold Change) [1] | Complex I IC50 ~Fold Change [1] | IC50 Fold change [1] | Relative Motility (L1 wild-type C. elegans; [2]) | Relative Motility (L1 wild-type C. elegans; [3]) | C. elegans KCN Survival (L1 wild-type C. elegans; Dose 100 µM) | Relative Motility (L1 wild-type C. elegans; [4]) | C. elegans KCN Survival (L1 wild-type C. elegans; Dose 0.78 µM)
Cc1nc2ccccc2n1Cc1ccc(C(C)(C)C)cc1 [Compound 5521938] | 0.46 | 0.46 | 0.46 | 0.215 | – | – | – | –
c1ccc(-c2noc(CCCCc3nc4ccccc4[nH]3)n2)cc1 [STK633241] | – | 0.9 | 0.90 | 0.000 | – | – | – | –
Nc1nc2ccccc2n1CCCOc1ccccc1 [Compound 7915320] | – | 2.35 | 2.35 | – | – | – | – | –
Cc1nc2ccccc2n1CCOc1ccccc1Cl [Compound 5561642] | – | 3.43 | 3.43 | – | 0.220 | 0.343 | – | –
CCCOc1ccc(Cn2cnc3ccccc32)cc1 [Compound 7355741] | 4.95 | 4.95 | 4.95 | – | – | – | 0.130 | –
Nc1nc2ccccc2n1Cc1ccc(Cl)cc1 [Compound 5652765] | 4.83 | 4.83 | 4.83 | – | – | – | 0.160 | –
Nc1nc2ccccc2n1Cc1ccc(Br)cc1 [Compound 7313068] | 3.85 | 3.85 | 3.85 | – | – | – | 0.180 | –
CCn1c(C(C)c2ccc(CC(C)C)cc2)nc2ccccc21 (stereo not shown) [STK951902] | 6.84 | 6.84 | 6.84 | 0.129 | – | – | – | –
Cc1nc2ccccc2n1CCOc1ccccc1 [Compound 5550112] | – | 1.7 | 1.70 | – | 0.200 | – | – | –
Cc1nc2ccccc2n1Cc1ccc(Cl)c(Cl)c1 [Compound 5655567] | 2.49 | 2.49 | 2.49 | – | – | – | 0.100 | –
Cc1ccc(Cn2c(C(C)C)nc3ccccc32)cc1 [Compound 6586153] | 6.11 | 6.11 | 6.11 | – | – | – | 0.068 | –
CCc1cc(OCCn2cnc3ccccc32)ccc1Cl [Compound 7925288] | – | 0.7 | 0.70 | – | 0.100 | – | – | –
Cc1nc2ccccc2n1Cc1ccccc1Cl [Compound 6707368] | 7.07 | 7.07 | 7.07 | – | – | – | 0.070 | –
CC(C)Cc1ccc(C(C)c2nc3ccccc3n2C(C)C)cc1 (stereo not shown) [STK951903] | 3.5 | 3.5 | 3.50 | 0.222 | – | – | – | –
Clc1ccc(Cn2cnc3ccccc32)c(Cl)c1 [Compound 6750659] | 5.78 | 5.78 | 5.78 | – | – | – | 0.093 | –
Cc1ccc(SCCCCn2cnc3ccccc32)cc1 [Compound 7925333] | 7.02 | 7.02 | 7.02 | – | – | – | 0.130 | 0.965
C=CCn1c(C(C)c2ccc(CC(C)C)cc2)nc2ccccc21 (stereo not shown) [STL020755] | 7.4 | 7.4 | 7.40 | 0.195 | – | – | – | –
Cc1ccc(Cn2c(C)nc3ccccc32)cc1 [Compound 5651984] | 5.5 | 5.5 | 5.50 | – | – | – | 0.170 | –
Cc1nn(C)c(Oc2ccccc2)c1C=NOCc1ccc(C(=O)OC(C)(C)C)cc1 [Fenpyroximate, reference compound] | 2.3 | – | – | – | – | – | – | –

SMILES | B. taurus: C. elegans IC50 Fold Change (Complex I IC50 ~Fold Change) [1] | Complex I IC50 ~Fold Change [1] | IC50 Fold change [1] | Relative Motility (L1 wild-type C. elegans; [2]) | Relative Motility (L1 wild-type C. elegans; [3]) | C. elegans KCN Survival (L1 wild-type C. elegans; Dose 100 µM) | Relative Motility (L1 wild-type C. elegans; [4]) | C. elegans KCN Survival (L1 wild-type C. elegans; Dose 0.78 µM)
C=CCn1c(-c2ccc(N(C)C)cc2)nc2ccccc21 [Compound 6873298] | – | 1.59 | 1.59 | – | – | – | 0.140 | –
Cc1ccccc1OCCCn1c(C)nc2ccccc21 [Compound 7916923] | – | 5.7 | 5.70 | – | 0.051 | – | – | –
Cc1ccc(C(C)C)c(OCC(O)Cn2cnc3ccccc32)c1 (stereo not shown) [Compound 6093301] | – | 5.75 | 5.75 | – | – | – | – | –
Cc1ccc2nc(C(C)c3ccc(CC(C)C)cc3)[nH]c2c1 (stereo not shown) [STL482096] | 13.52 | 13.52 | 13.52 | 0.106 | – | – | – | –
Cn1c(Cc2ccc(Cl)cc2)nc2ccccc21 [Compound 9005666] | 4.03 | 4.03 | 4.03 | 0.126 | – | – | – | –
c1ccc(CCCCCCCCCCc2nc3ccccc3[nH]2)cc1 [STL442376] | – | 1.42 | 1.42 | 0.038 | – | – | – | –
Clc1ccc(SCCCCn2cnc3ccccc32)cc1 [Compound 7925515] | 8.44 | 8.44 | 8.44 | – | – | – | 0.082 | –
Clc1ccc(OCCn2cnc3ccccc32)c(Cl)c1 [Compound 7221649] | – | 2.52 | 2.52 | – | 0.100 | – | – | –
Cc1nc2ccccc2n1Cc1ccc(F)cc1 [Compound 7360886] | 4.88 | 4.88 | 4.88 | 0.229 | – | – | – | –
Clc1ccc(Cn2cnc3ccccc32)cc1Cl [Compound 5571325] | 2.62 | 2.62 | 2.62 | – | – | – | 0.150 | –
CC(C)Oc1cccc(OCCn2cnc3ccccc32)c1 [Compound 7926496] | – | 0.35 | 0.35 | – | 0.170 | – | – | –
Nc1nc2ccccc2n1CCOc1ccc(Br)cc1 [Compound 5842535] | – | 2.05 | 2.05 | – | 0.130 | – | – | –
Cc1cccc(OCCn2c(C)nc3ccccc32)c1 [Compound 6285199] | – | 5.91 | 5.91 | – | 0.140 | – | – | –
Cc1ccc(OCCn2cnc3ccccc32)cc1 [Compound 5671538] | – | 3.26 | 3.26 | – | 0.092 | – | – | –
Brc1ccc(Cn2cnc3ccccc32)cc1 [Compound 5542661] | 6.32 | 6.32 | 6.32 | – | – | – | 0.150 | –
Cc1ccc(OCCn2cnc3ccccc32)c(C)c1 [Compound 7706808] | – | 5.84 | 5.84 | – | 0.160 | – | – | –
Cc1nc2ccccc2n1Cc1ccc(C(C)C)cc1 [Compound 7353551] | 3.65 | 3.65 | 3.65 | 0.232 | – | – | – | –
FC(F)(F)c1cccc(OCCCCn2cnc3ccccc32)c1 [Compound 7925004] | 6.29 | 6.29 | 6.29 | – | – | – | 0.180 | –
Cc1ccc(SCCCn2cnc3ccccc32)cc1 [Compound 7926035] | – | 6.65 | 6.65 | – | 0.067 | – | – | –
